Values quoted from earlier work in patent US20050182140A1, “Antimicrobial compositions” (Microban Products Company, priority 2003, published 2005).

Conditions: approximately 95% active form, solid at room temperature; cited from earlier work

For “N-alkyl dimethylbenzyl ammonium saccharinate [ONYXIDE™ 3300]”, the solubility in water is given as “insoluble in water”.
